A word on the IC50: it is the midpoint of a concentration-inhibition curve.

IC50 data for one compound are collected here from BindingDB's records for doi:10.1016/j.ejmech.2018.12.025 (Chung-Ang University, 2019).

In the assay the target is T1, Mitogen-activated protein kinase kinase kinase 7/TGF-beta-activated kinase 1 and MAP3K7-binding protein 1 (Homo sapiens, UniProt O43318+Q15750).
T1 sequence (O43318 whole entry): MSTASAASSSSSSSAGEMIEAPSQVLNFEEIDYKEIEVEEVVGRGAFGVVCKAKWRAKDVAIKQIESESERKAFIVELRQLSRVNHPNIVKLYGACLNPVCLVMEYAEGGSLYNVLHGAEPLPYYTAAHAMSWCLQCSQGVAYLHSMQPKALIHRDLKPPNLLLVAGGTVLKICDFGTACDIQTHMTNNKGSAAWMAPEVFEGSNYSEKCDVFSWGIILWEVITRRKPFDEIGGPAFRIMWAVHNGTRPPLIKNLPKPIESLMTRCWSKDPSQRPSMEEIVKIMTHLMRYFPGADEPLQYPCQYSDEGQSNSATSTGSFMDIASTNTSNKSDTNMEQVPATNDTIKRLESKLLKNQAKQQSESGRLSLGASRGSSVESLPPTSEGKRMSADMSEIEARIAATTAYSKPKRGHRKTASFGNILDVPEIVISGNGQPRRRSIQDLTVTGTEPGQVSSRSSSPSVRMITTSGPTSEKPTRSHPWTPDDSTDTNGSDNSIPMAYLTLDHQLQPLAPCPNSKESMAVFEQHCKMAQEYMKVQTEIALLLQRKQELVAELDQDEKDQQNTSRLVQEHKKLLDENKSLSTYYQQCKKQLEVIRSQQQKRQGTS
T1 sequence (Q15750 whole entry): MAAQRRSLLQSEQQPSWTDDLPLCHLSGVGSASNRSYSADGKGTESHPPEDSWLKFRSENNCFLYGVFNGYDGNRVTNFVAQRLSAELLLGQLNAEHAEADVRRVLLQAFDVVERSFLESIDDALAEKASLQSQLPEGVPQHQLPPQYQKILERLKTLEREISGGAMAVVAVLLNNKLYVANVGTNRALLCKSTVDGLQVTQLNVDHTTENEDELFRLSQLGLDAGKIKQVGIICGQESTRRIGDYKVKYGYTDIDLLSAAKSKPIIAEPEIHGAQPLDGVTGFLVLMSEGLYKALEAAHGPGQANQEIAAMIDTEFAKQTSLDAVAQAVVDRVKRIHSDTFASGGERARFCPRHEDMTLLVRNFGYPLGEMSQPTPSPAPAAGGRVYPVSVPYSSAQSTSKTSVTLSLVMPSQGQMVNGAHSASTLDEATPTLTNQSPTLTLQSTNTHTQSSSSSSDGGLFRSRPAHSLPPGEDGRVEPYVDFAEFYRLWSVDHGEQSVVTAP
In words: Inhibition of full length TAK1/TAB1 (unknown origin) using biotin-MKK6 as substrate by AlphaScreen assay.

On to `COc1cc(O)c2c(c1)/C=C/C[C@H](O)[C@H](O)C(=O)/C=C\C[C@H](C)OC2=O`, for which the IC50 turned out to be 9 nM.
